Experiment [1] addresses Poly [ADP-ribose] polymerase 1 (Homo sapiens, UniProt P09874).
The target in experiment [2] is T1, Poly [ADP-ribose] polymerase tankyrase-1 (Homo sapiens, UniProt O95271).
T1 sequence (O95271 whole entry): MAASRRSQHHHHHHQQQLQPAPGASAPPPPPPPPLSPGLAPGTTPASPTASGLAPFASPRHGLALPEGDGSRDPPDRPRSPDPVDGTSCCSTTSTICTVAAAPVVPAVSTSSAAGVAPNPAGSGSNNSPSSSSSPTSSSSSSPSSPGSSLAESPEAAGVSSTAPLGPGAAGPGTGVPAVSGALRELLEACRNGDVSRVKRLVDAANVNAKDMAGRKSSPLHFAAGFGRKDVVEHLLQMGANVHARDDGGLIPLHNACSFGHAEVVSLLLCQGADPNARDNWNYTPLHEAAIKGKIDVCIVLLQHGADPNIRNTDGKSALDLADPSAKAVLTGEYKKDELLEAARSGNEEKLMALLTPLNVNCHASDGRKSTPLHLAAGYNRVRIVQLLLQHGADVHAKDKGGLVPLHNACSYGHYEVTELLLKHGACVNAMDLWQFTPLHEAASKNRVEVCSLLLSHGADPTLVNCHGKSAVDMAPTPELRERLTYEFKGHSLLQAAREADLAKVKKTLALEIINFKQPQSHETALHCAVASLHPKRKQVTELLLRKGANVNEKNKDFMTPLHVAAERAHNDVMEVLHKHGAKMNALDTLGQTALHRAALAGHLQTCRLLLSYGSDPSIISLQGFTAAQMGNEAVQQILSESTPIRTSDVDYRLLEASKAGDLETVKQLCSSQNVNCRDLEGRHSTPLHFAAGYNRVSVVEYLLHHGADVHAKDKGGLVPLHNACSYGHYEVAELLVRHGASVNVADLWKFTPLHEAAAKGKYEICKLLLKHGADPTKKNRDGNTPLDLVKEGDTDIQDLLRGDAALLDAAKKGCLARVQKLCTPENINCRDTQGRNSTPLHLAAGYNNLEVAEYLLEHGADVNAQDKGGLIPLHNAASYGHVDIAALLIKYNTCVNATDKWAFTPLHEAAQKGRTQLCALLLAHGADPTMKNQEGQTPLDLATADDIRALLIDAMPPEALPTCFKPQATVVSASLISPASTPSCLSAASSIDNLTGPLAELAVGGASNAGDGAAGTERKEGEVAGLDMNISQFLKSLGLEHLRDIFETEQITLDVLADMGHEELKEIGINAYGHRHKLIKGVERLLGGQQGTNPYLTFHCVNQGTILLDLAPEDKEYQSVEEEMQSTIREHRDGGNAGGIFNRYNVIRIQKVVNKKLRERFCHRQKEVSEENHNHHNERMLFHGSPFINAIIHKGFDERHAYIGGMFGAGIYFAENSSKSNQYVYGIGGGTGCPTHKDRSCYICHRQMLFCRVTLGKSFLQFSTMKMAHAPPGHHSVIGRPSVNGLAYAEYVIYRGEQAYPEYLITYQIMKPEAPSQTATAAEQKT

Amino acid sequences for entries named in this document (tags omitted). A change or cut given only in a name is not applied to a line headed by its entry.
UniProt P09874, whole entry: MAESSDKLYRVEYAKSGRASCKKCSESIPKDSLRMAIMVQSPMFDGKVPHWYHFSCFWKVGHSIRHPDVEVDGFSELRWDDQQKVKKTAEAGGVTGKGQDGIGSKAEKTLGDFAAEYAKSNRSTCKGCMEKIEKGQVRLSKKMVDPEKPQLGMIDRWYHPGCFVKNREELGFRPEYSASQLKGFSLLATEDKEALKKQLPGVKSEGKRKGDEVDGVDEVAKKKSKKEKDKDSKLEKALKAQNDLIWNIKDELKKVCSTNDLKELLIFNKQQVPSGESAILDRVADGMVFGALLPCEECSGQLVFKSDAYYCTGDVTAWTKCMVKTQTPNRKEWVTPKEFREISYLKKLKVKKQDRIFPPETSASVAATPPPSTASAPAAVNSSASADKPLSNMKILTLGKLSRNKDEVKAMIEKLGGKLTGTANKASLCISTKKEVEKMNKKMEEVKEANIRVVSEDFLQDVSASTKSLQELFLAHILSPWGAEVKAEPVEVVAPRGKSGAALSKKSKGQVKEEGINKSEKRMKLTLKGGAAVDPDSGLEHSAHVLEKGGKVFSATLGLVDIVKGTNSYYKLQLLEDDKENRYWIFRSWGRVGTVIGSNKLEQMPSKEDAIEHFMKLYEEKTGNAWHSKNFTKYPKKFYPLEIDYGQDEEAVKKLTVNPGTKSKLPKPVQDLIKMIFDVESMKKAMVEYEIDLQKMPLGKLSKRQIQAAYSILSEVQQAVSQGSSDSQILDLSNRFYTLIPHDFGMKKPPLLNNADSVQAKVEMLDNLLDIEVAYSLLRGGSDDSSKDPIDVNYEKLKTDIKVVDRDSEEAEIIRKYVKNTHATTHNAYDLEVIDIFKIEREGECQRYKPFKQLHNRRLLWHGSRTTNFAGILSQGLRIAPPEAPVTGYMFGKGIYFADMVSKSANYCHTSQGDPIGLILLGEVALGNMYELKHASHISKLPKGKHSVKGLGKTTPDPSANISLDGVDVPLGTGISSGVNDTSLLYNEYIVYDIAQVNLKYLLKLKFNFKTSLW
UniProt Q9UKK3: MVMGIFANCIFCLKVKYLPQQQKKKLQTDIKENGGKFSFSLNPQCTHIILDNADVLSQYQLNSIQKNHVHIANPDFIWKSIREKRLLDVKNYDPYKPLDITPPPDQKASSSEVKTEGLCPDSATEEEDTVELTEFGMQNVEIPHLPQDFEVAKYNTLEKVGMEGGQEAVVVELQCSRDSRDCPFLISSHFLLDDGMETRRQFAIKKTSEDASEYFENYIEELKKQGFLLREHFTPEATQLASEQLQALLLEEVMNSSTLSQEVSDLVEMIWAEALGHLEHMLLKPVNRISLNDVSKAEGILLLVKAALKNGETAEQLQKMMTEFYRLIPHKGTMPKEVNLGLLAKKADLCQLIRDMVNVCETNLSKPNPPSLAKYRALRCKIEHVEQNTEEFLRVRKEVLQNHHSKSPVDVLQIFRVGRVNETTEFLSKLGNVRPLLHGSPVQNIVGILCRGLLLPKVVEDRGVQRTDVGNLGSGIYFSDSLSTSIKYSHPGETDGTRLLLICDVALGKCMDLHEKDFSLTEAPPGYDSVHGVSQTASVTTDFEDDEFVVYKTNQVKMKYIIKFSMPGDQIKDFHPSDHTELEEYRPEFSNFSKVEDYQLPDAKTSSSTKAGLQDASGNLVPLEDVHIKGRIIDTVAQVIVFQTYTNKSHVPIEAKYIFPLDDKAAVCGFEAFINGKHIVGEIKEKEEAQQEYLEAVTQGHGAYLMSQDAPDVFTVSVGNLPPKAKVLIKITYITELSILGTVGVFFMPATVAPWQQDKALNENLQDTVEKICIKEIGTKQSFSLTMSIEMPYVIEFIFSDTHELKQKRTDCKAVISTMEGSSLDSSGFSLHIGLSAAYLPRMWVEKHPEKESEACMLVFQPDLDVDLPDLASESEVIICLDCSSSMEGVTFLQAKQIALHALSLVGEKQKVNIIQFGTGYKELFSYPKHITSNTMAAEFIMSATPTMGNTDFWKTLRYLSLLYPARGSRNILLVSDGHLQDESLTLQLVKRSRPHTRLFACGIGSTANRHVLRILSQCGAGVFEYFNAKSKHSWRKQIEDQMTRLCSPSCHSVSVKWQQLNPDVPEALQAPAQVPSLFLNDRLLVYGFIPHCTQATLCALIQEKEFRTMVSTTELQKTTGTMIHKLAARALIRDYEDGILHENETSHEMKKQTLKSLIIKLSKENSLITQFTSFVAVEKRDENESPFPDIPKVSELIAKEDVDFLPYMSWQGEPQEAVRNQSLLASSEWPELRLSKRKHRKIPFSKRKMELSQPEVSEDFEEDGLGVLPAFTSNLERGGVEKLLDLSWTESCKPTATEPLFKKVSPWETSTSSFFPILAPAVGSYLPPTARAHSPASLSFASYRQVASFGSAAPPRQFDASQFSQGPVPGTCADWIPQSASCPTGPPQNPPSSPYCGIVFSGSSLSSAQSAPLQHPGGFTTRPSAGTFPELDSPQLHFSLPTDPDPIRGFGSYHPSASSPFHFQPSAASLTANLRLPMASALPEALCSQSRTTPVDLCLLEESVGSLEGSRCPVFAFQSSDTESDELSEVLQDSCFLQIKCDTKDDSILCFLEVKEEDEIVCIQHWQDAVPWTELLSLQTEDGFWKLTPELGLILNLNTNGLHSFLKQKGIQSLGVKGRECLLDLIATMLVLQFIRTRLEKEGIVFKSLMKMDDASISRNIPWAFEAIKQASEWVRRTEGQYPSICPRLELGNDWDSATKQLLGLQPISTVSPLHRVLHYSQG

Experiment [3] addresses T2, Protein mono-ADP-ribosyltransferase PARP3 (Homo sapiens) (UniProt Q9Y6F1).
T2 sequence (whole entry): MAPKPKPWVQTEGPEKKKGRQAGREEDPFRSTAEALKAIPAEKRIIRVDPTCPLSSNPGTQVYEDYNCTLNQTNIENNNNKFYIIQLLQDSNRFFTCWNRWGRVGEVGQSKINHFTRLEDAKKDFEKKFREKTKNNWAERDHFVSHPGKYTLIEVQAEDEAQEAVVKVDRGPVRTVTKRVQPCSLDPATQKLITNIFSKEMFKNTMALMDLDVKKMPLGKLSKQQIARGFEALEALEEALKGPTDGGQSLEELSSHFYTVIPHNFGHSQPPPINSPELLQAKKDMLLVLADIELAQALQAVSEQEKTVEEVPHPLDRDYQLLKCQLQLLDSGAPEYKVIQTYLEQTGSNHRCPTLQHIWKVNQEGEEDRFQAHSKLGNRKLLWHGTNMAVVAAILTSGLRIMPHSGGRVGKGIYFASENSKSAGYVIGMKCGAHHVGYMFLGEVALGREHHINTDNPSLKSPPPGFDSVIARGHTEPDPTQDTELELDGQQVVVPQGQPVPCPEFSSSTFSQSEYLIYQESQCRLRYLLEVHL

The target of experiment [4] is T3, Protein mono-ADP-ribosyltransferase PARP4 (Homo sapiens, UniProt Q9UKK3).
Experiment [5] addresses T4, Protein mono-ADP-ribosyltransferase PARP10 (Homo sapiens) (UniProt Q53GL7).
T4 sequence (whole entry): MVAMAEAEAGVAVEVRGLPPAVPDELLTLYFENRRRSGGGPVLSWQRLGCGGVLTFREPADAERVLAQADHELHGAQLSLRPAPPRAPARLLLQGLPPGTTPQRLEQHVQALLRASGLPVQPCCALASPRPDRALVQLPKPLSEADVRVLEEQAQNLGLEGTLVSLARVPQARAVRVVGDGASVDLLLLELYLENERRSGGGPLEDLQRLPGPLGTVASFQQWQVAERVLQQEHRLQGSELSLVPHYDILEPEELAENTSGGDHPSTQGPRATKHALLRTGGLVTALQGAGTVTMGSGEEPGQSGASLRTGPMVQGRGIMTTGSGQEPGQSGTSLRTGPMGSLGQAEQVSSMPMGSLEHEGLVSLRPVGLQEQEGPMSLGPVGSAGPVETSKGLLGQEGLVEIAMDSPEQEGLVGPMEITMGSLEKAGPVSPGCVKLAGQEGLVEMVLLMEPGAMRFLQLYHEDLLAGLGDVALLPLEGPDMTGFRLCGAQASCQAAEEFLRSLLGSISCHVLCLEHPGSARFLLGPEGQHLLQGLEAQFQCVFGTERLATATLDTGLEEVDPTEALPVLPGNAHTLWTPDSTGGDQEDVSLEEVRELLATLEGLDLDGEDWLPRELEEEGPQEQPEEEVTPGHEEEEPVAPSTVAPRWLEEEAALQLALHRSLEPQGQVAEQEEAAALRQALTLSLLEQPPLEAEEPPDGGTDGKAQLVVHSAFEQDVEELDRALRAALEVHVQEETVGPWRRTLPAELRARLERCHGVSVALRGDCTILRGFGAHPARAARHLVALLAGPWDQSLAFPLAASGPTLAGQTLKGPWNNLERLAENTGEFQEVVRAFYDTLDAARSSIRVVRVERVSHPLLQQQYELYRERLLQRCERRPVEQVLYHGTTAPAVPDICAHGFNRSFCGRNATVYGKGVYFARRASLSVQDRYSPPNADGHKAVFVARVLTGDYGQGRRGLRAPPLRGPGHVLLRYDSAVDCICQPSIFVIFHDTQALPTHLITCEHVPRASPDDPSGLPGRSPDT

Experiment [6] deals with T3, Protein mono-ADP-ribosyltransferase PARP4. The source holds these as a separate data set.

Active and inactive are the calls of the source. The calls are words filed in the database; no cut-off is given here.

As for `Cc1cc(N2C[C@@H](C)N[C@@H](C)C2)ncc1-c1ccc(-c2nc3c(ccn3C)c(=O)[nH]2)cc1`, the IC50 (in general, the midpoint of a concentration-inhibition curve) in experiment [1] was 1600 nM; in experiment [2], 100 nM. In addition, the pIC50 entry in experiment [3], in experiment [4] and in experiment [5] was “inactive” in each case.

In turn, `NC(=O)c1cccc2cn(-c3ccc([C@@H]4CCCNC4)cc3)nc12` [NIRAPARIB] gave an IC50 in experiment [6] of 446 nM.

(Values after ChEMBL document CHEMBL3994596, “Structural Basis for Potency and Promiscuity in Poly(ADP-ribose) Polymerase (PARP) and Tankyrase Inhibitors” (J Med Chem, 2017).)
